Protein sequences, listed by entry. Tags and fused reporters are not part of them. Residues count along the entry.
UniProt P03956, 100-469 limits assumed: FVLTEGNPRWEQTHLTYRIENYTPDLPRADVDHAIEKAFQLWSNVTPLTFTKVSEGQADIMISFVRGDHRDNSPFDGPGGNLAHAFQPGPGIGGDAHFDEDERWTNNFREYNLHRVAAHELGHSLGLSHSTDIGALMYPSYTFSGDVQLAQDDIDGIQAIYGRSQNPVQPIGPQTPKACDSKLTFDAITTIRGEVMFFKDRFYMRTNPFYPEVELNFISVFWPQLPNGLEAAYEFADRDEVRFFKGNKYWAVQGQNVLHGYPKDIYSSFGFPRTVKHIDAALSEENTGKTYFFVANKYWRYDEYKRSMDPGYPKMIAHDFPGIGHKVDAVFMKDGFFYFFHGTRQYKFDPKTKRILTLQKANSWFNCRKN

In BindingDB's records for 2153207:

Biological target: Interstitial collagenase (Homo sapiens, UniProt P03956)
Settings: pH 7.5

| SMILES | Ki |
| --- | --- |
| CCOP(=O)(O)N[C@H](C(=O)O)[C@@H](C)CC | 990 µM |
| CCOP(=O)(O)N[C@@H](CC(C)C)C(=O)O | 950 µM |
